{"source": "patent US20220117949A1", "about": "“LTA4H INHIBITORS FOR THE TREATMENT OF HIDRADENITIS SUPPURATIVA” (NOVARTIS AG, priority 2019, published 2022)", "conditions": "Part 1, 30 mg, 24 hours", "from_the_text": "In parts 1 and 2 of the clinical study (SAD and MAD), skin blisters were induced on the arm of subjects in selected cohorts.\nBlister fluid samples were collected at Day 1 pre-dose and Day 2 pre-dose in SAD cohort 4 as well as Day 1 pre-dose and Day 9 predose in MAD cohort 2-5.", "data": [{"smiles": "N[C@@H](CC(=O)O)Cn1nnc(-c2ccc(Oc3ncc(Cl)cc3F)cc2)n1", "note": "[compound of example 1, (S)-3-amino-4-(5-(4-((5-chloro-3-fluoropyridin-2-yl)oxy)phenyl)-2H-tetrazol-2-yl)butanoic acid]", "values": [{"measurement": "blister fluid concentration relative to plasma concentration at the same time", "value": "approximately two-fold"}]}]}
